Entries after “also recorded” stand apart in the source; their conditions may differ. Like-named read-outs stand apart in the source and are kept apart here.
Columns and labels:
[^3 H]BFI binding sites [1] = molecular target: T1, [^3 H]BFI binding sites (Homo sapiens, UniProt P27338)
[^3 H]BFI binding sites [2] = molecular target: T1, [^3 H]BFI binding sites; remark: listed apart in the source
[3] = molecular target: [^3 H]BFI binding sites (I2 binding site); settings: human cortex, 8 nM [^3 H]BFI, two-site fit

The chains behind the UniProt entries cited, without tags or fusion partners. Residues count along the entry.
UniProt P27338, 2-520 limits assumed: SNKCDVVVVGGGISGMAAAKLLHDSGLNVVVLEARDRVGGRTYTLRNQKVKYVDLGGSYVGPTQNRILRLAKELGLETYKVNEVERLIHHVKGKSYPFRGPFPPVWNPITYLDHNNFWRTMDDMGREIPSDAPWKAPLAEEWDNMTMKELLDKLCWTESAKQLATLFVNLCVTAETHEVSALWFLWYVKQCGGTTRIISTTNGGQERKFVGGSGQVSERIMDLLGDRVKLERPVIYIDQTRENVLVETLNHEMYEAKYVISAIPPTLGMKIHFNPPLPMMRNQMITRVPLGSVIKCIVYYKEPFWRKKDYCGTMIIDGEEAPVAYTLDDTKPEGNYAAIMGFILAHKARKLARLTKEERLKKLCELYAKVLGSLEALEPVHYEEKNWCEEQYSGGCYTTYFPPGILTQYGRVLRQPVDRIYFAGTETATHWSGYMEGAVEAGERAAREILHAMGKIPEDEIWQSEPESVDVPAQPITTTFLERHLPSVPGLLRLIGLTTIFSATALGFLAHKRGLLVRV

N[C@@H]1C[C@H]1c1ccccc1 (relative stereo) [TCP, Tranylcypromine]
TCP concentrations that inhibited [^3 H]BFI binding ([^3 H]BFI binding sites [1]; free TCP present during incubation): > 10 µM | TCP concentration of maximal effect on [^3 H]BFI binding ([^3 H]BFI binding sites [1]; free TCP present during incubation, 8 nM [^3 H]BFI, human cortex or NRL): 0.3 µM | TCP concentration of maximal potentiation of [^3 H]BFI binding ([^3 H]BFI binding sites [1]; free TCP present during incubation, human brain): 300 nM | Potentiation of [^3 H]BFI binding in human brain ([^3 H]BFI binding sites [1]; human cortex / NRL): markedly potentiated; also recorded: dramatically enhanced | Decrease in KD for [^3 H]BFI binding in the presence of TCP ([^3 H]BFI binding sites [1]; human cortex, 100 nM TCP): 3 fold | Increase in Bmax for [^3 H]BFI binding in the presence of TCP ([^3 H]BFI binding sites [1]; human cortex, 100 nM TCP): 4-7 fold | TCP concentration of maximal potentiation of [^3 H]BFI binding ([^3 H]BFI binding sites [1]; membranes preincubated with TCP, then washed to remove free TCP, human cortex): 1000 nM | Potentiation of BFI binding sites in human platelets ([^3 H]BFI binding sites [2]): potentiated

NNCCc1ccccc1 [phenelzine]
Potentiation of [^3 H]BFI binding in human brain ([^3 H]BFI binding sites [1]): small potentiation | Potentiation of [^3 H]BFI binding in human cortex ([^3 H]BFI binding sites [1]): slight potentiation; also recorded: slight increase

C#CCN(C)CCCOc1ccc(Cl)cc1Cl [clorgyline]
Ki ([3]; read-out: Ki for competition of [^3 H]BFI binding, two-site model, first (high-affinity) value): 27.8 nM | Ki ([3]; read-out: Ki for competition of [^3 H]BFI binding, two-site model, second (low-affinity) value): 3700 nM

Reference: US5914235A (Eli Lilly and Company, priority 1997, dated 1999)
